Results: PubChem BioAssay AID624304 (Sanford-Burnham Center for Chemical Genomics, 2012)
The entries are a selection whose mix differs from that of the whole data set. Calls of active or inactive are those of the source.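 The calls were made as follows: active = interference check ratio from 0.5 to 1.5 plus GFP to RFP signal ratio inhibition reaching or exceeding a fixed threshold (cut at about 30% in these data, passing the limit was not always enough); inactive = the rest.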

Assay: suppressors of acrylamide-induced Pgst-4::GFP reporter in worms, primary screen, SKN-1 inhibitor project, whole organism, uHTS, GFP/RFP fluorescence ratio, strain VP596 (AID 624304)
Conditions: C. elegans VP596 Pgst-4::GFP/RFP ratio, 24 h, at 21.8 µM, stronger effect = higher value

Row | Compound | inhibition
1 | CC(C)C(=O)NC(Sc1ccccc1)C(Cl)(Cl)Cl (stereo not given) | inactive: -1.89%
2 | O=P(Nc1nccs1)(c1ccccc1)c1ccccc1 | inactive: 14%
3 | c1nnnn1CCn1cnnn1 | inactive: 1.6%
4 | O=[N+]([O-])c1ccc(O)c(/C=N/Nc2ccc([N+](=O)[O-])cc2[N+](=O)[O-])c1 | inactive: -8.45%
5 | O=[N+]([O-])c1ncn(CCn2cnc([N+](=O)[O-])n2)n1 | inactive: -8.71%
6 | CC(=O)NC(SC(=S)N(C)C)C(Cl)(Cl)Cl (stereo not given) | inactive: -3.19%
7 | O=[As](O)(c1ccccc1)c1ccc(O)cc1 | inactive: -3.6%
8 | C(Cc1nn[nH]n1)Cc1nn[nH]n1 | inactive: -8.81%
9 | Nc1ccc([As](=O)(O)c2ccc([N+](=O)[O-])cc2)cc1 | inactive: 9.29%
10 | O=C(OC1CN2CCC1CC2)c1cccc(Cl)c1 (stereo not given) | inactive: 14.6%
11 | COc1ccc(N)c([N+](=O)[O-])c1[N+](=O)[O-] | inactive: -3.32%
12 | Nc1ccc(CCCCOc2ccccc2)cc1 | inactive: 6.33%
13 | O=P(Nc1ccccn1)(c1ccc(Br)cc1)c1ccc(Br)cc1 | inactive: 1.13%
14 | CN(C)C1(CNC(=O)c2ccc(Cl)c(S(N)(=O)=O)c2)CCCCC1 | inactive: 13.1%
15 | O=P(Nc1nc2ccccc2s1)(c1ccccc1)c1ccccc1 | inactive: -5.21%
16 | C[C@H]1OP(=O)(Oc2ccccc2)[C@H](O)[C@H](O)[C@H]1N=[N+]=[N-] (stereo not given in full) | inactive: 8.98%
17 | COC(=O)c1cc2c(s1)N=C(c1ccccc1)N(C)P2(=O)N1CCOCC1 (stereo not given) | inactive: 14%
18 | Cc1ccc(OP(=O)(Nc2ccccn2)Oc2ccc(C)cc2)cc1 | inactive: -6.09%
19 | CC(=O)NC(SC(=S)N(CC(C)C)CC(C)C)C(Cl)(Cl)Cl (stereo not given) | inactive: 6.92%
20 | O=C(OC1CN2CCC1CC2)c1ccccc1 (stereo not given) | inactive: -10.3%
21 | CCC(=O)N1C2C3N(C(=O)CC)C1C1N(C(=O)CC)C(C(N1C(=O)CC)N3C(=O)CC)N2C(=O)CC | inactive: 10.2%
22 | CC(NC(=O)COC(=O)C(O)(c1ccccc1)c1ccccc1)c1ccccc1 (stereo not given) | inactive: -0.96%

Row | Compound | inhibition
23 | Cc1ccccc1OP(=O)(Nc1ccccn1)Oc1ccccc1C | inactive: -7.81%
24 | O=c1c2cc([N+](=O)[O-])ccc2[nH]c2c([N+](=O)[O-])cc([N+](=O)[O-])cc12 | inactive: -4.93%
25 | CN(C)C(=O)Oc1noc2ccccc12 | inactive: -16.6%
26 | CCNC(=S)/N=C(\N)N[N+](=O)[O-] | inactive: -10.6%
27 | O=C(NC1CCS(=O)(=O)C1)NP(=S)(Oc1ccccc1)Oc1ccccc1 (stereo not given) | inactive: 1.4%
28 | c1ccc(-c2nn[nH]n2)c(-c2nn[nH]n2)c1 | inactive: -4.38%
29 | Cc1ccc(NP(=O)(Oc2cccc(C)c2)Oc2cccc(C)c2)nc1 | inactive: -1.57%
30 | O=P1(N(CCCl)CCCl)OCCC2CCCCN21 (stereo not given) | inactive: -3.13%
31 | CC(=O)c1ccc(N2CC2c2ccncc2)cc1 (stereo not given) | inactive: 13.6%
32 | N#C/C(=C\c1ccc(N(CCBr)CCBr)cc1)C(N)=O | inactive: 9.56%
33 | COC(=O)C1(C)COP(=O)(NCc2ccccc2)OC1 (stereo not given) | inactive: -20.4%
34 | Cc1ccccc1CN(C)C(=O)COC(=O)C(O)(c1ccccc1)c1ccccc1 | inactive: 5.08%
35 | C[C@H]1OP(=O)(Oc2ccccc2)C[C@@H]2O[C@@H]21 (stereo not given in full) | inactive: -12.4%
36 | C[C@@H]1C=CCP(=O)(Oc2ccccc2)O1 (stereo not given in full) | inactive: 18.7%
37 | CC(=O)Nc1ccc([As](=O)(O)O)c(O)c1 | inactive: 0.992%
38 | CC(=O)Nc1ccc(Oc2c([N+](=O)[O-])cc([N+](=O)[O-])cc2[N+](=O)[O-])cc1 | inactive: -0.393%
39 | O=P1(Nc2nc3ccc(Cl)cc3s2)COc2ccccc2O1 (stereo not given) | inactive: 12.7%
40 | CCOc1ccc(C2=NCC(CBr)S2)cc1 (stereo not given) | inactive: -3.12%
41 | CCc1cc(O)c([N+](=O)[O-])c(C)c1[N+](=O)[O-] | inactive: 3.93%
42 | CC(C)(C)C(=O)NC(Sc1ccccc1)C(Cl)(Cl)Cl (stereo not given) | inactive: -9.03%
43 | Nc1cc(N)c2nonc2c1[N+](=O)[O-] | inactive: -0.173%
44 | CC(C)CC(=O)NC(Sc1ccc(Cl)cc1)C(Cl)(Cl)Cl (stereo not given) | inactive: 2.48%

Row | Compound | inhibition
45 | Oc1ccccc1CNc1ccccn1 | inactive: -0.724%
46 | O=C(NC(Sc1ccncn1)C(Cl)(Cl)Cl)c1ccccc1 (stereo not given) | inactive: -6.58%
47 | O=[N+]([O-])C1C(O)C(O)C([N+](=O)[O-])C(O)C1O (stereo not given) | inactive: 4.25%
48 | NC(=O)c1cc([N+](=O)[O-])cc([N+](=O)[O-])c1N | inactive: 8.63%
49 | CN(C(=O)Cc1ccc(Cl)c(Cl)c1)[C@H]1CCCC[C@H]1N1CCCC1 | inactive: 14.9%
50 | Cc1ccc(N/C(=N/P(=O)(N2CCOCC2)N2CCOCC2)N2CCOCC2)cc1 | inactive: 5.24%
51 | COc1ccccc1OP(=O)(Nc1ccc(C)cn1)Oc1ccccc1OC | inactive: -9.14%
52 | Cc1ccc(OP(=O)(Nc2nccs2)Oc2ccc(C)cc2)cc1 | inactive: 4.49%
53 | CN1CCCC(OC(=O)C(c2ccccc2)c2ccccc2)C1 (stereo not given) | inactive: 18.8%
54 | Clc1ccc(Cl)c(NC2=NCC(CBr)S2)c1 (stereo not given) | inactive: 8.47%
55 | CCN(N=Nc1nonc1N)c1nonc1N | inactive: 6.91%
56 | Nc1cccc2ccc([As](=O)(O)O)cc12 | inactive: 60.8%
57 | CC(=O)Nc1ccc([As](=O)(O)O)cc1 | inactive: -3.15%
58 | O=C(O)c1ccccc1[As](=O)(O)O | inactive: 5.68%
59 | CCCC1OP(N)(=O)OCC1CC (stereo not given) | inactive: 9.86%
60 | O=P(Nc1nc2ccc(Cl)cc2s1)(c1ccccc1)c1ccccc1 | inactive: 2.09%
61 | CN(C)P(=O)(N(C)C)n1c(Nc2ccccc2)nnc1-c1ccccc1 | inactive: 7.72%
62 | Cc1cc(SC(NC(=O)c2ccc(F)cc2)C(Cl)(Cl)Cl)ncn1 (stereo not given) | inactive: 10.1%
63 | CCOP(=O)(Nc1ccccc1)OCC | inactive: 6.61%
64 | Cc1ccc(NP(=O)(Oc2ccccc2F)Oc2ccccc2F)nc1 | inactive: -4.74%
65 | CN(C(=O)Cc1ccc(Cl)c(Cl)c1)[C@H]1CCCC[C@@H]1N1CCCC1 | inactive: -7.22%
